# The source made the active and inactive calls. The rule behind the calls is not given here.
# Molecular target: T1, Proteinase-activated receptor 1 (Homo sapiens) (UniProt P25116)
# T1 sequence (whole entry): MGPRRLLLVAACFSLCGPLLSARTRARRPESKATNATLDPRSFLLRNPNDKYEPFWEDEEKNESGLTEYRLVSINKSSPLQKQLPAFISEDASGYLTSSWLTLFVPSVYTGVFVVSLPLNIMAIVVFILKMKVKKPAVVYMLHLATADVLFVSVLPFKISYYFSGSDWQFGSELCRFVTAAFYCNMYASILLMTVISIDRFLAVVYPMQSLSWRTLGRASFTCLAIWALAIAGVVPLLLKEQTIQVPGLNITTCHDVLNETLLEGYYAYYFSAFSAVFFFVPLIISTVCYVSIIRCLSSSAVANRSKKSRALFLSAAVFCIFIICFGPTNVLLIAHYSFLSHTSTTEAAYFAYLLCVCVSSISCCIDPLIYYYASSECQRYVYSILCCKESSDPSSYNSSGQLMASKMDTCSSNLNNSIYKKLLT
# Assay: Agonist activity at PAR1 in 2f-LIGRLO-NH2-desensitized human PC3 cells assessed as induction of intracellular calcium release at 100 uM compound treated post desensitization by Fluo-3 AM dye based fluorescence assay
# Type: functional, cell-based
structure (smiles),measurement,value
CC(C)C[C@H](NC(=O)[C@H](CC(C)C)NC(=O)[C@H](Cc1ccccc1)NC(=O)[C@@H](N)[C@@H](C)O)C(=O)N[C@@H](CCCNC(=N)N)C(N)=O,Activity,Active

# Source: ChEMBL document CHEMBL4000151, “Potent Small Agonists of Protease Activated Receptor 2” (ACS Med Chem Lett, 2016)
